The entries are a selection whose mix differs from that of the whole data set. The source made the active and inactive calls.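 Rule for the calls: active = fluorescent GTP binding to Rab7 beads changed by at least 20 points from the 100% baseline, either direction, mostly lower; inconclusive = compound itself probably fluorescent, or too few beads counted; inactive = the rest.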

The subject of the test is Rab7 GTPase wild type (dog), Bodipy-FL-GTP binding. As to the kind of experiment: wildtype dog Rab7 nucleotide binding alteration – biochemical, multiplex bead flow cytometry, primary screen (AID 758).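 Note: median green fluorescence of bound Bodipy-FL-GTP per Rab7 bead population.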 As to conditions: GST-Rab7 beads, fluorescent GTP binding, at 10 µM, actives lie on both sides, untreated = 100%, excess cold GTP = 0%.
In the case of `CP(=O)(Oc1ccccc1)OC(c1ccccc1)C(F)(F)F` (stereo unspecified), the GTP binding activity (percent of control) was inactive: 100%. Consider `Cc1cccc(C)c1OP(C)(=O)Nc1ccc(SC(F)(F)F)cc1` (stereo unspecified), for which the GTP binding activity (percent of control) was inactive: 95%. For the compound `Cc1cc(C)cc(OP(C)(=O)Nc2ccc(SC(F)(F)F)cc2)c1` (stereo unspecified), the GTP binding activity (percent of control) is inactive: 99%.

Take `CP(=O)(NC(=O)Nc1ccccc1)Oc1ccccc1` (stereo unspecified): the GTP binding activity (percent of control) is inactive: 97%. For `CCOP(C)(=S)SCC(=O)NC(C)C(=O)O` (stereo unspecified) the value was inactive: 100%; for `CCOC(=O)c1ccc(NP(C)(=O)Oc2ccc(OC)cc2)cc1` (stereo unspecified), inactive: 103%. Take `CP(=O)(Nc1ccccn1)Oc1ccc(Cl)cc1` (stereo unspecified): the GTP binding activity (percent of control) was inactive: 94%. In the case of `CP(=S)(Nn1cnnc1)Oc1ccccc1` (stereo unspecified), the GTP binding activity (percent of control) is inactive: 101%.

Consider `COc1ccccc1OP(C)(=O)Nc1ccccc1` (stereo unspecified), for which the GTP binding activity (percent of control) was inactive: 96%. Consider `CP(=O)(Nc1ccccc1Br)Oc1ccccc1` (stereo unspecified), for which the GTP binding activity (percent of control) is inactive: 102%. Take `Cc1cccc(C)c1OP(C)(N)=O` (stereo unspecified): the GTP binding activity (percent of control) was inactive: 102%.

On to `CC(C)(C)c1ccc(OP(C)(=O)Nc2ccc(SC(F)(F)F)cc2)cc1` (stereo unspecified), for which the GTP binding activity (percent of control) is inactive: 102%. Regarding `O=[N+]([O-])c1ccc2c(c1)C=Nc1ccccc1O2`, the GTP binding activity (percent of control) is inactive: 92%. The same measure for `CCOC(=O)c1ccc(NP(C)(=O)Oc2ccccc2)cc1` (stereo unspecified): inactive: 102%; for `Cc1ccc(NP(C)(=O)Oc2ccccc2)c(C)c1` (stereo unspecified): inactive: 99%; for `COc1ccccc1OP(C)(=O)Nc1ccc(C)cc1` (stereo unspecified): inactive: 101%.

Regarding `COc1ccc(OP(C)(=O)Nc2cccc(F)c2)cc1` (stereo unspecified), the GTP binding activity (percent of control) is inactive: 96%.

Take `COc1ccccc1OP(C)(=O)Nc1cc(Cl)ccc1C` (stereo unspecified): the GTP binding activity (percent of control) was inactive: 97%.

Take `Cc1cc(C)cc(OP(C)(N)=O)c1` (stereo unspecified): the GTP binding activity (percent of control) is inactive: 96%. For `CCN(CC)CCCOC(=O)C(O)(c1ccccc1)c1ccccc1` the value was inactive: 104%; for `Cc1cc(C)cc(OP(C)(=O)Nc2ccc(C)cc2C)c1` (stereo unspecified), inactive: 101%; for `CCOC(=O)c1ccc(NP(C)(=O)Oc2cc(C)cc(C)c2)cc1` (stereo unspecified), inactive: 97%. Turning to `CP(=O)(Nc1cccc(Br)c1)Oc1ccccc1` (stereo unspecified), the GTP binding activity (percent of control) is inactive: 103%. Consider `Cc1cc(C)cc(OP(C)(=O)Nc2ccccn2)c1` (stereo unspecified), for which the GTP binding activity (percent of control) was inactive: 106%. Take `Cc1ccc(C)c(NP(C)(=O)Oc2ccccc2)c1` (stereo unspecified): the GTP binding activity (percent of control) was inactive: 98%. Consider `CC1=NCCc2c1[nH]c1ccccc21.O=[N+]([O-])c1cc([N+](=O)[O-])c(O)c([N+](=O)[O-])c1`, for which the GTP binding activity (percent of control) is inactive: 94%. On to `COc1ccccc1OP(C)(=O)Nc1c(C)cccc1C` (stereo unspecified), for which the GTP binding activity (percent of control) is inactive: 101%. As for `CN1CCCCC1COC(=O)C1(O)c2ccccc2CCc2ccccc21` (stereo unspecified), the GTP binding activity (percent of control) was inactive: 102%. `CP(=O)(Nc1ccc(SC(F)(F)F)cc1)Oc1ccccc1` (stereo unspecified): the GTP binding activity (percent of control) is inactive: 102%. Turning to `CCCOc1ccc(NP(C)(=O)Oc2ccc(Cl)cc2)cc1` (stereo unspecified), the GTP binding activity (percent of control) is inactive: 92%. The same measure for `O=[N+]([O-])c1cc([N+](=O)[O-])c(-n2nnc3ccccc32)c([N+](=O)[O-])c1`: inactive: 92%.

These data come from PubChem BioAssay AID758 (NMMLSC, 2007).
